Test results taken from PMC4856418 (FEBS Open Bio, 2016).

Chains of the proteins cited; added tags and fusions are not shown.
UniProt Q9NVS9, whole entry R95C: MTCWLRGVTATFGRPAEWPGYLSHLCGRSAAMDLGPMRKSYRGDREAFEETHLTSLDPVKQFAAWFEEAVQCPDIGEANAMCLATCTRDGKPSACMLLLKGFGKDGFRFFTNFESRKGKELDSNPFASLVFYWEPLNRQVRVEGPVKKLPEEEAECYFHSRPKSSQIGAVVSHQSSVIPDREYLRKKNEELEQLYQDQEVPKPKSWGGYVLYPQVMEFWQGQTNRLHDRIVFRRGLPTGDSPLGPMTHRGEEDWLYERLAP

Columns and labels:
[1] = biological target: T1, hPNPO (human pyridoxine 5'-phosphate oxidase) (Homo sapiens, UniProt Q9NVS9, R95C); assay: biochemical
T1 construct: gene PNPO

[2] = biological target: T2, hPNPO (human pyridoxine 5'-phosphate oxidase) (Homo sapiens, UniProt Q9NVS9); assay: biochemical
T2 construct: gene PNPO

Kd [1]: 354 ± 12 nM
Kd [2]: 24 ± 3 nM
Structure (SMILES): Cc1cc2nc3c(=O)[nH]c(=O)nc-3n(C[C@H](O)[C@H](O)[C@H](O)COP(=O)(O)O)c2cc1C [FMN]
